Protein sequences, listed by entry. Tags and fused reporters are not part of them. Residues count along the entry.
UniProt P56817, 22-460: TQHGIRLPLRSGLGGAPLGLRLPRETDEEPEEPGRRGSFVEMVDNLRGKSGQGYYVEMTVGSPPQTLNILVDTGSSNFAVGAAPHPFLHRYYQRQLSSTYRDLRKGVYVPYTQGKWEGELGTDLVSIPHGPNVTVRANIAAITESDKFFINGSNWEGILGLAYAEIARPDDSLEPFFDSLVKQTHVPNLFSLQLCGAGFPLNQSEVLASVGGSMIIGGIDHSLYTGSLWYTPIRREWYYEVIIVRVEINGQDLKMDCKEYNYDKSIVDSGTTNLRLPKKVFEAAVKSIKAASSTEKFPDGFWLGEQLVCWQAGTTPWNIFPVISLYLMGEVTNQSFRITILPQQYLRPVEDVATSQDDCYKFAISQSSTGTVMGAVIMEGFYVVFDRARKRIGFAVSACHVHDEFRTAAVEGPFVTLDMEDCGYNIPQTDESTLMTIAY

According to patent publication US8865911B2, “Compounds and their use as BACE inhibitors” (Astrazeneca AB, priority 2010, dated 2014):

What was measured:
[1] = test system: sAPPβ release, SH-SY5Y cells; assay: sAPPβ release assay; type: cell-based; conditions: compounds incubated 17 h, MSD detection
Procedure: Thaw cells and seed at a conc. of around 10000 cells/well in DMEM/F-12 with Glutamax, 10% FCS and 1% non-essential amino acids to a 384-well tissue culture treated plate, 100 μL cell susp/well. […] The cell medium was removed, followed by addition of 30 μL compound diluted in DMEM/F-12 with Glutamax, 10% FCS, 1% non-essential amino acids and 1% PeSt to a final conc. of 1% DMSO. The compounds were incubated with the cells for 17 h (overnight) at 37° C., 5% CO2. Meso Scale Discovery (MSD) plates were used for the detection of sAPPβ release. MSD sAPPβ plates were blocked in 1% BSA in Tris wash buffer (40 μL/well) for 1 h on shake at r.t. and washed 1 time in Tris wash buffer (40 μL/well). 20 μL of medium was transferred to the pre-blocked and washed MSD sAPPβ microplates, and the cell plates were further used in an ATP assay to measure cytotoxicity. The MSD plates were incubated with shaking at r.t. for 2 h and the media discarded. 10 μL detection antibody was added (1 nM) per well followed by incubation with shaking at r.t. for 2 h and then discarded. 40 μL Read Buffer was added per well and the plates were read in a SECTOR Imager.

[2] = target: T1, human β-Secretase (Homo sapiens (Human), UniProt P56817); assay: TR-FRET assay; type: biochemical; conditions: sBACE-Fc, substrate (Europium)CEVNLDAEFK(Qsy7) 100 nM, pH4.5, 15 minutes at r.t.
Procedure: (§1) The β-secretase enzyme used in the TR-FRET is prepared as follows: The cDNA for the soluble part of the human β-Secretase (AA 1-AA 460) was cloned using the ASP2-Fc10-1-IRES-GFP-neoK mammalian expression vector. The gene was fused to the Fc domain of IgG1 (affinity tag) and stably cloned into HEK 293 cells.
(§2) The robotic systems Biomek FX and Velocity 11 were used for all liquid handling and the enzyme and substrate solutions were kept on ice until they were placed in the robotic system. Enzyme (9 μl) was added to the plate then 1 μl of compound in dimethylsulphoxide was added, mixed and pre-incubated for 10 minutes. Substrate (10 μl) was then added, mixed and the reaction proceeded for 15 minutes at r.t. The reaction was stopped with the addition of Stop solution (7 μl, NaAcetate, pH 9). […] The dimethylsulphoxide control, instead of test compound, defined the 100% activity level and 0% activity was defined by wells lacking enzyme (replaced with reaction buffer).

[3] = target: T1, human β-Secretase; assay: Diluted TR-FRET assay; type: biochemical; conditions: values marked ^a; 50 times less enzyme, 6.5 h reaction time at r.t. in the dark; read-out: IC50 in TR-FRET assay (IC50 from the diluted FRET assay)
Procedure: as §1
as §2, with “Substrate (10 μl) was then added, mixed and the reaction proceeded for 15 minutes at r.t.” left out

| SMILES | IC50 [3] | also measured |
| --- | --- | --- |
| CC1=NC2(CC3(CCCOC3)Oc3ccc(-c4ccc(F)c(Cl)c4)cc32)N=C1N (single isomer, unassigned) [Example 46b Isomer 2, 6′-(3-Chloro-4-fluorophenyl)-5-methyl-5″,6″-dihydro-4′H-dispiro[imidazole-2,4′-chromene-2′,3″-pyran]-4-amine] |  | IC50 ([1]; listed as 46b Isomer 2): 185 nM; IC50 [2]: 147 nM |
| CC1=NC2(CC(C3CCOC(C)(C)C3)Oc3ccc(-c4cccc(Cl)c4)cc32)N=C1N (racemic) [Example 50 Isomeric mixture 1, 6-(3-Chlorophenyl)-2-(2,2-dimethyltetrahydro-2H-pyran-4-yl)-5′-methylspiro[chroman-4,2′-imidazol]-4′-amine] |  | IC50 ([1]; listed as 50 Isomeric mixture 1): 597 nM |
| CO[C@H]1CC[C@]2(CC1)Cc1ccc(-c3cncc(Cl)c3)cc1[C@@]21N=C(C)C(N)=N1 (single isomer, unassigned) [Example 20e Isomer 1] | 1.1 nM |  |
| CCC#Cc1cncc(-c2ccc3c(c2)C2(N=C(C)C(N)=N2)[C@]2(CC[C@H](OC)CC2)C3)c1 (stereo partly drawn) [Example 72, (1r,4r)-6′-[5-(But-1-yn-1-yl)pyridin-3-yl]-4-methoxy-5″-methyl-3′H-dispiro[cyclohexane-1,2′-indene-1′,2″-imidazol]-4″-amine] | 2.3 nM |  |
| CO[C@H]1CC[C@]2(CC1)Cc1ccc(-c3cc(C#N)cc(C(F)(F)F)c3)cc1[C@@]21N=C(C)C(N)=N1 [Example 85, 3-[(1r,1′R,4R)-4″-Amino-4-methoxy-5″-methyl-3′H-dispiro[cyclohexane-1,2′-indene-1′,2″-imidazol]-6′-yl]-5-(trifluoromethyl)benzonitrile] | 3.1 nM |  |
| CO[C@H]1CC[C@]2(CC1)Cc1ccc(C#CC(C)(C)C)cc1C21N=C(C)C(N)=N1 (single isomer, unassigned; isomer 2) [Example 20h Isomer 2, (1r,4r)-6′-(3,3-dimethylbut-1-yn-1-yl)-4-methoxy-5″-methyl-3′H-dispiro[cyclohexane-1,2′-indene-1′,2″-imidazol]-4″-amine] |  | IC50 [1]: 5 nM |

Further lines, with some results ahead:

| IC50 [3] | SMILES | also measured |
| --- | --- | --- |
| 2.3 nM | CO[C@H]1CC[C@]2(CC1)Cc1ccc(-c3cncc(Cl)c3)cc1C21N=C(C)C(N)=N1 (stereo partly drawn) [Example 20e, (1r,4r)-6′-(5-Chloropyridin-3-yl)-4-methoxy-5″-methyl-3′H-dispiro[cyclohexane-1,2′-indene-1′,2″-imidazol]-4″-amine] |  |
| 1.6 nM | CO[C@H]1CC[C@]2(CC1)Cc1ccc(-c3cncc(Br)c3)cc1C21N=C(C)C(N)=N1 (stereo partly drawn) [Example 20aa, (1r,4r)-6′-(5-Bromopyridin-3-yl)-4-methoxy-5″-methyl-3′H-dispiro[cyclohexane-1,2′-indene-1′,2″-imidazol]-4″-amine] |  |
